From patent publication US10183913B2, “Pyrazole compound” (Sumitomo Dainippon Pharma Co., Ltd., priority 2010, dated 2019) come the findings set out here.

Protein sequences, listed by entry. Tags and fused reporters are not part of them. Lines headed by an entry give the natural chain unless they say otherwise; changes in a name come on top.
UniProt P28335: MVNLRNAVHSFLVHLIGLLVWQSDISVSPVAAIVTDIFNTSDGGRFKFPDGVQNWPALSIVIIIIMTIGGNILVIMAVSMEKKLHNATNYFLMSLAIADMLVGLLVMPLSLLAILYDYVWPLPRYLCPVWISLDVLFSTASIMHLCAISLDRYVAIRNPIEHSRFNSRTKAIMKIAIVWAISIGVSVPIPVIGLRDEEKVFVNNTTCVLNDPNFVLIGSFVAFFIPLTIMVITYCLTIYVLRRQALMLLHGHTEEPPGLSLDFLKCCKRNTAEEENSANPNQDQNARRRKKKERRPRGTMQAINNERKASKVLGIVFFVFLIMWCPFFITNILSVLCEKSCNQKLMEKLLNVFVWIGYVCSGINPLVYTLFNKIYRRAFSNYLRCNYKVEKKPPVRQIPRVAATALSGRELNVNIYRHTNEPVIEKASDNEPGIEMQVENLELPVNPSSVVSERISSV

In test [1] the target is human serotonin transporter (h-SERT) (Homo sapiens (Human), UniProt P31645). In words: [3H] citalopram binding assay to evaluate human serotonin reuptake inhibitory action (h-SERT binding assay). The settings on record: read-out: Test Ex. 1: h-SERT binding inhibition constant Ki. The protocol:
Citalopram Binding Assay to Evaluate Human Serotonin Reuptake Inhibitory Action
(§1) Preparation of the Cells and Membrane Preparations
In the experiment, human serotonin transporter (h-SERT) was expressed in CHO cells (h-SERT/CHO). The cells were incubated with F12 containing 10% FCS, 500 μg/mL Geneticin and 100 U/mL penicillin—100 μg/mL streptmycin (all manufactured by Sigma Aldrich) in an incubator containing 5% CO2; detached and collected using a SERT buffer [50 mmol/L Tris-HCl comprising 120 mmol/L NaCl and 5 mmol/L KCl (pH=7.4)]; homogenized with a homogenizer manufactured by Teflon (trademark); and then centrifuged (50,000×g, 30 min, 4° C.). The precipitate was suspended again in the appropriate amount of SERT buffer (to give a membrane preparation), and stored at −80° C. until used. The amount of protein in the membrane preparation was assayed by Dye Reagent Concentrate (manufactured by BIO-RAD) using bovine serum albumin (manufactured by Sigma Aldrich) as a standard.
1-2. h-SERT Binding Assay
The [^3H] citalopram binding was measured according to the method disclosed in Owens M. J. et al., J. Pharm. […] The solution was reacted at room temperature for 60 minutes, and then quickly suction-filtered under reduced pressure through a glass fiber filter coated with 0.05% aq. polyethyleneimine. The glass fiber filter was washed twice with […] of the SERT buffer, placed in a plastic vial containing 4 mL of liquid scintillator (ACS-II, manufactured by Amersham) or Ecoscint A (manufactured by National Diagnostics), and the remaining radioactivity on the filter paper was assayed with a liquid scintillation counter.

Test [2] addresses T1, human serotonin 2C receptor (h-5-HT2C) (Homo sapiens (Human), UniProt P28335). In words: 5-HT2C receptor agonistic action assay (FLIPR Calcium 4 Assay kit, h-5-HT2C/CHO cells). The test is classed as cell-based. The conditions noted are these: test material 10 μmol/L; 100% = 10 μmol/L 5-HT, −100% = 10 μmol/L SB206553; below 0% = inverse agonistic action. The protocol: 3-1. The Cells and Inoculation Thereof
In the experiment, human serotonin 2C receptor (h-5-HT2C) was expressed in CHO cells (h-5-HT2C/CHO). The cells were incubated with UltraCHO Lipuid (trademark) (manufactured by BioWhitakker) containing 1% FBS, 400 μg/mL Geneticin, 100 U/mL penicillin—100 μg/mL streptomycin (all manufactured by Sigma Aldrich) and 250 μg/mL Zeosin (manufactured by InvivoGen) in an incubator containing 5% CO2. On the day before using the cells, they were detached and collected using 250 μg/mL Trypsin solution (manufactured by Nacalai Tesque), then inoculated in a 96 well flat clear bottom black polystyrene TC-treated microplates (manufactured by Corning) at 40000 cells/well/60 μL in an incubator containing 5% CO2 for 16 hours to 24 hours.
3-2. 5-HT2C Receptor Agonistic Action Assay
The 5-HT2C receptor agonistic action was evaluated with FLIPR Calcium 4 Assay kit (manufactured by Molecular Devices). […] Then, the cells were set in FLIPR TETRA (trademark) (manufactured by Molecular Devices), to the cells was added the test material diluted with HHBP buffer, 2.5 mmol/L Probenecid (manufactured by Sigma) (concentration after dilution: 10 μmol/L) at an amount of 20 μL/well, and the fluorescence was measured. Then, in order to evaluate the antagonistic action of the test material, 20 μL/well of 5-HT solution (manufactured by Sigma, final concentration: 0.1 nmol/L) was further added to the cells, and the fluorescence was measured.
The 5-HT2C receptor agonistic action of each test material was calculated as a rate of fluorescence enhancement wherein 100% was defined as a value when the cells were given 10 μmol/L 5-HT. Furthermore, the 5-HT2C receptor inverse agonistic action was calculated as a rate of fluorescence decay wherein −100% was defined as a value when the cells were given 10 μmol/L SB206553 (manufactured by Sigma Aldrich). […]

In test [3] the target is T1, human serotonin 2C receptor (h-5-HT2C). Description: [3H] mesulergine binding assay to evaluate affinity for human 5-HT2C receptor. The settings on record: h-5-HT2C/CHO membrane preparation, read-out: Test Ex. 2: 5-HT2C receptor binding inhibition constant Ki. The protocol:
Mesulergine Binding Assay to Evaluate Affinity for Human 5-HT2C Receptor
as §1
In the experiment, human serotonin 2C receptor (h-5-HT2C) was expressed in CHO cells (h-5-HT2C/CHO). The cells were incubated with UltraCHO Lipuid (trademark) (manufactured by BioWhitakker) containing 1% FBS, 400 μg/mL Geneticin, 100 U/mL penicillin—100 μg/mL streptomycin (all manufactured by Sigma Aldrich) and 250 μg/mL Zeosin (manufactured by InvivoGen) in an incubator containing 5% CO2; detached and collected using 50 mmol/L Tris-HCl (pH=7.4); homogenized with a homogenizer manufactured by Teflon (trademark); and then centrifuged (48,000×g, 25 min, 4° C.). The precipitate was suspended again in the appropriate amount of 50 mmol/L Tris-HCl (to give a membrane preparation), and stored at −80° C. until used. The amount of protein in the membrane preparation was assayed by Dye Reagent Concentrate (manufactured by BIO-RAD) using bovine serum albumin (manufactured by Sigma Aldrich) as a standard.
2-2. 5-HT2C Receptor Binding Assay
A solution of 200 μL in total was prepared by mixing 50 μL of [^3H] mesulergine (manufactured by GE Healthcare) diluted with 50 mmol/L Tris-HCl (pH=7.4) (final concentration: about 2 nmol/L), 149 μL of the h-5-HT2C/CHO membrane preparation (protein amount: 20 μg/well), and 1 μL of the test drug dissolved in dimethylsulfoxide. The solution was reacted at 37° C. for 30 minutes, and then quickly suction-filtered under reduced pressure through a glass fiber filter coated with 1% aq. bovine serum albumin. The glass fiber filter was washed twice with 250 μL of 50 mmol/L Tris-HCl (pH=7.4), placed in a plastic vial containing 4 mL of liquid scintillator (ACS-II, manufactured by Amersham) or Ecoscint A (manufactured by National Diagnostics), and the remaining radioactivity on the filter paper was assayed with a liquid scintillation counter. The non-specific binding of [^3H] mesulergine was defined as a binding amount in the presence of 10 μmol/L SB206553 (manufactured by Sigma Aldrich). The IC50 value was calculated according to Hill analysis, and the binding inhibition constant (Ki) was calculated according to the following formula: Binding inhibition constant (Ki)=IC50/(1+S/Kd) wherein S is a concentration of the added [^3H] mesulergine, and Kd is a binding dissociation constant of [^3H] mesulergine which was calculated from a saturated binding assay using the same cell membrane.

As for `CNCc1cc(OCc2cc(Cl)ccc2F)n(CC2CC2)n1` [Example 131, 1-{5-[(5-chloro-2-fluorobenzyl)oxy]-1-(cyclopropylmethyl)-1H-pyrazol-3-yl}-N-methylmethanamine], the Ki in test [1] came out at 3.7 nM; in test [3], 10 nM. In addition, the “Test Ex. 3: 5-HT2C receptor agonistic action” value in test [2] is −70%.
Take `CNCc1cc(OCc2cc(Cl)ccc2F)n(CC(C)C)n1` [Example 256, 1-{5-[(5-chloro-2-fluorobenzyl)oxy]-1-(2-methylpropyl)-1H-pyrazol-3-yl}-N-methylmethanamine]: the Ki in test [1] amounted to 1.6 nM; in test [3], 12 nM.
On to `CNCc1cc(OCc2cc(F)ccc2F)n(CC(C)(C)C)n1` [Example 258, 1-{5-[(2,5-difluorobenzyl)oxy]-1-(2,2-dimethylpropyl)-1H-pyrazol-3-yl}-N-methylmethanamine], for which the Ki stood at 0.66 nM in test [1] and 16 nM in test [3]. Further, in test [2], the “Test Ex. 3: 5-HT2C receptor agonistic action” value was −118%.
Turning to `CNCc1cc(OCc2cc(Cl)ccc2F)n(CC(C)(C)C)n1` [Example 259, 1-{5-[(5-chloro-2-fluorobenzyl)oxy]-1-(2,2-dimethylpropyl)-1H-pyrazol-3-yl}-N-methylmethanamine], the inhibitory constant (Ki) in test [1] amounted to 2.4 nM; in test [3], 6.2 nM.
On the same counts, the results for `CNCc1cc(OCc2cc(F)ccc2F)n(CCC(C)(C)C)n1` [Example 266, 1-{5-[(2,5-difluorobenzyl)oxy]-1-(3,3-dimethylbutyl)-1H-pyrazol-3-yl}-N-methylmethanamine] are 0.69 nM and 4.5 nM.
Consider `CNCc1cc(OCc2cc(F)ccc2F)n(CCC(C)C)n1` [Example 269, 1-{5-[(2,5-difluorobenzyl)oxy]-1-(3-methylbutyl)-1H-pyrazol-3-yl}-N-methylmethanamine], for which the inhibition constant Ki in test [1] stood at 0.59 nM; in test [3], 6.7 nM. Further, the “Test Ex. 3: 5-HT2C receptor agonistic action” value in test [2] is −77%.
For the compound `CNCc1cc(OCc2cc(Cl)ccc2F)n(CCC(C)(C)OC)n1` [Example 275, 1-{5-[(5-chloro-2-fluorobenzyl)oxy]-1-(3-methoxy-3-methylbutyl)-1H-pyrazol-3-yl}-N-methylmethanamine], the Ki was 22 nM in test [1] and 11 nM in test [3].
For `CNC(C)c1cc(OCc2cc(F)ccc2F)n(CCC2CCCC2)n1` (stereo not shown) [Example 315, 1-{1-(2-cyclopentylethyl)-5-[(2,5-difluorobenzyl)oxy]-1H-pyrazol-3-yl}-N-methylethanamine], in that order: 11 nM and 3.6 nM.

Usually Ki stands for the equilibrium dissociation constant of an inhibitor or competing ligand from its target.
